Experimental data reported in PubChem BioAssay AID602163 (The Scripps Research Institute Molecular Screening Center, 2012).
Only a part is listed here, and it is no random draw. Some tests of the compounds listed are not included; inactive here does not mean inactive elsewhere. Activity calls are given as the source filed them. Cut-off read from the data, not from the text of the source: active = activation above about 7.5%; inactive = the rest.

system: Methionine sulfoxide reductase A (Bos taurus); experiment: bovine MsrA enzyme activators, primary screen, biochemical, absorbance, HTS (AID 602163); conditions: purified bovine MsrA, absorbance read-out; at 10.6 µM; hits give high values;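 note: 0% = vehicle and 100% = reference activator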

Structure (SMILES) | activation
O=C(NCC1(N2CCCCC2)CCCCC1)c1cc([N+](=O)[O-])ccc1Cl | inactive: -2.86%
CN1[C@@H]2CC[C@H]1CC(OC(=O)C(O)(c1ccccc1)c1ccccc1)C2 (stereo partly specified) | inactive: -1.82%
COc1cc(SC)ccc1C(=O)NCC1(N(C)C)CCCCC1 | inactive: -5.33%
CCN(CC)CC(C)C(C)OC(=O)C(O)(c1ccccc1)c1ccccc1 (stereo unspecified) | inactive: -3.15%
CC(C)N1C(=O)CC2(CCN(CCOC(=O)C(O)(c3ccccc3)c3ccccc3)CC2)C1=O | inactive: -2.19%
Cc1ccc(C(=O)NCC2(N3CCCCC3)CCCCC2)cc1 | inactive: 1.67%
CN(C)C1CCCC1OC(=O)C(O)(c1ccccc1)c1ccccc1 (stereo unspecified) | inactive: -2.36%
CN(C)c1ccc(C(=O)NCC2(N(C)C)CCCCC2)cc1 | inactive: -2.75%
Cc1ccccc1C(=O)NCC1(N2CCCCC2)CCCCC1 | inactive: -6.11%
O=C(NCC1(N2CCCCC2)CCCCC1)c1cc(F)c(F)cc1Cl | inactive: -2.27%
C=CCN1CCN(CCOC(=O)C(O)(c2ccccc2)c2ccccc2)CC1 | inactive: -2.55%
COc1ccc(C(=O)NCC2(N(C)C)CCCCC2)cc1 | inactive: -0.91%
O=C(NCC1(N2CCCCC2)CCCCC1)c1cccc(Br)c1 | inactive: -2.84%
Cc1cc(C(=O)NCC2(N3CCCCC3)CCCCC2)ccc1[N+](=O)[O-] | inactive: -1.74%
CCN1CCCC(OC(=O)C2(O)c3ccccc3C=Cc3ccccc32)C1 (stereo unspecified) | inactive: 0.27%
CN(C)C1(CNC(=O)c2ccc(Br)cc2)CCCCC1 | inactive: -3.53%
COc1cc(C(=O)NCC2(N(C)C)CCCCC2)c([N+](=O)[O-])cc1OC | inactive: 2.26%
COc1ccc(Cl)cc1C(=O)NCC1(N(C)C)CCCCC1 | inactive: -2.03%
COc1cccc(C(=O)NCC2(N3CCCCC3)CCCCC2)c1 | inactive: -2.9%
O=C(NCC1(N2CCCCC2)CCCCC1)c1cccc(Cl)c1 | inactive: -5.1%
O=C(OC1CN2CCC1CC2)C(CO)(c1ccccc1)c1ccccc1 (stereo unspecified) | inactive: -2.3%
C=C(C)C#CC(O)(C(=O)OC1CCN(C)CC1)c1ccccc1 (stereo unspecified) | inactive: -10.1%
COc1ccc(Br)c(C(=O)NCC2(N3CCCCC3)CCCCC2)c1 | inactive: -2%
O=C(OCCN1CCCC1)C(O)(c1ccccc1)c1ccccc1 | inactive: -1.56%
CC(C)Oc1ccc(C(=O)NCC2(N(C)C)CCCCC2)cc1 | inactive: -4.28%
CN(C)c1cccc(C(=O)NCC2(N(C)C)CCCCC2)c1 | inactive: -4.36%
